The test system of the assay is P388 leukemia. Briefly: Activity against P388 leukemia in mice. The assay is classed as in vivo. The conditions noted are these: 15 and 30 mg/kg level on three occasions, 3 days apart. The method, then: Bis[β-(4-desacetylleurosine C-3 carboxamide)ethyl]disulfide disulfate was active against the P388 leukemia in mice, when administered at the 15 and 30 mg/kg level on three occasions, 3 days apart. 55 and 46 percent prolongation of survival time respectively were observed.

The results in this text go back to patent publication US4191688A, “Amides of leurosine, leuroformine, desacetylleurosine and desacetylleuroformine” (Eli Lilly and Company, priority 1978, dated 1980).

For `CCC12CN3CCc4c([nH]c5ccccc45)C(C(=O)OC)(c4cc5c(cc4OC)N(C)C4C(O)(C(=O)NCCSSCCNC(=O)C6(O)C(O)C7(CC)C=CCN8CCC9(c%10cc(C%11(C(=O)OC)CC%12CN(CCc%13c%11[nH]c%11ccccc%13%11)CC%11(CC)OC%12%11)c(OC)cc%10N(C)C69)C87)C(O)C6(CC)C=CCN7CCC54C76)CC(C3)C1O2` (stereo not drawn) [Bis[β-(4-desacetylleurosine C-3 carboxamide)ethyl]disulfide disulfate], the “activity against P388 leukemia” value is on record as “active”.
